# Ab-14 heavy chain CDR variants: yeast mating affinities

Source: Li et al. 2023 (doi:10.1038/s41467-023-39022-2), MIT Lincoln Laboratory and A-Alpha Bio; data file from the FLAb repository.

Binding partner: SARS-CoV-2 spike HR2 peptide, sequence PDVDLGDISGINAS.

Parent: Ab-14, a human scFv built as VH, the linker GGGGSGGGGSGGGGS, VL. Only the CDRs of the heavy chain vary.
VH: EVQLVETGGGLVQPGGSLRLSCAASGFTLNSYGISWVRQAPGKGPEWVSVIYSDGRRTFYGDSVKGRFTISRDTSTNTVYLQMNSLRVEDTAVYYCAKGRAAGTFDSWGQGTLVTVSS
VL: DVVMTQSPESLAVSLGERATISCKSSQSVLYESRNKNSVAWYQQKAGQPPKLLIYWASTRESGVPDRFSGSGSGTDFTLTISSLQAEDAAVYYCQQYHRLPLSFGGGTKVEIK

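The starting antibody came from a phage panning campaign against this peptide. The variants were designed computationally from a first round of random CDR variants and then made and measured. Their group label is 14H_GPLM_HC (GPLM: also part of the Gaussian process libraries; HC: hill climbing; a sequence that several methods proposed may carry one label only). The scFvs were displayed on barcoded MATa yeast, the peptide on MATalpha yeast. Mating (16 h, 30 °C) was followed by selection of diploids and sequencing of their barcodes. A regression on co-assayed BCL2-family reference pairs converts the normalised counts of each replicate to an apparent Kd. There are six technical replicates.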

The parent's heavy chain CDRs are GFTLNSYGIS, VIYSDGRRTFYGDSVK, GRAAGTFDS; each variant's own CDRs replace them letter for letter. Values are log10 of the apparent Kd in nM; lower means stronger binding. "n.d." means that the variant was in the library but no mating with the target was seen in that replicate; the authors take this as a sign of poor binding, and no number exists. In the paper, a design with two or fewer of six values counts as a poor binder.

| # | CDR-H1 | CDR-H2 | CDR-H3 | replicates, log10 nM | signal with controls |
|---|---|---|---|---|---|
| 1 | KFTLNSYGIS | VIYSDGRRTFYDDSVK | GQLAGTFDS | n.d. 2.21 1.55 2.08 n.d. n.d. | 0 of 18 |
| 2 | GFTLNEYGIS | VIYSDGRRTFYGDSVK | GRAALTFDE | n.d. n.d. n.d. n.d. n.d. n.d. | 0 of 18 |
| 3 | GFTLNDYGIS | VIYSDGRRTAYIDSVK | GRAAGTFDS | 0.31 0.34 0.51 -0.08 0.20 0.42 | 0 of 18 |
| 4 | GFTLNDYGIS | VIYSDGRRTFYGDSVK | GRMAGTFTS | n.d. n.d. n.d. 1.67 n.d. n.d. | 1 of 18 (1.72) |
| 5 | GFSLNQYGIS | VIYSDGRRTFYDDSVK | GRAAGTFDS | n.d. 0.96 1.59 2.03 2.41 1.24 | 0 of 18 |
| 6 | GFTLNEYGIS | VIYSDGKRTFYGDSVK | GRAAGTFIS | n.d. n.d. n.d. n.d. n.d. n.d. | 0 of 18 |
| 7 | GFTLNEYGIS | VIYSDGRRTFYTDSVK | GRFAGTFDL | 0.90 1.02 0.53 -0.07 0.31 0.80 | 0 of 18 |
| 8 | GFPLNEYGIS | VIYSDGRRTFYGDSVK | GRAAVTFDQ | 0.43 1.52 n.d. 0.22 n.d. 0.69 | 0 of 18 |
| 9 | GFQLNSYGIS | VIYSDGRRTFYSDSVK | GDAAGTFDS | n.d. n.d. n.d. n.d. n.d. n.d. | 0 of 18 |
| 10 | GFTLNEYGIS | VIYSDGRRTFYSDSVK | GRAAGKFMS | n.d. n.d. n.d. n.d. n.d. n.d. | 0 of 18 |
| 11 | GFDLNSYGIS | VIYSDGRRTFYLDSVK | GQLAGTFDS | 2.18 0.06 -0.23 0.20 1.14 0.83 | 0 of 18 |
| 12 | GFTLNEYGIS | VIYSDGRRTFYGDSVK | GRAALTFDF | n.d. n.d. n.d. n.d. n.d. n.d. | 0 of 18 |
| 13 | SFTLNSYGIS | VIYSDGRRTFYDDSVK | GQLAGTFDS | n.d. n.d. n.d. n.d. n.d. n.d. | 0 of 18 |
| 14 | GFTLNEYGIS | VIYSDGRRTFYGDSVK | GRAAWTFDQ | n.d. n.d. n.d. n.d. n.d. n.d. | 0 of 18 |
| 15 | GFDLNSYGIS | VIYSDGRRTFYGDSVK | GQAAGSFDS | n.d. n.d. n.d. n.d. 2.48 1.96 | 0 of 18 |
| 16 | GFTLNDYGIS | VIYSDGRRTFYGDSVK | GRAAGTFWQ | n.d. n.d. n.d. n.d. n.d. n.d. | 0 of 18 |
| 17 | GFNLNSYGIS | VIYSDGRRTFYDDSVK | GQEAGTFDS | -0.52 -0.27 -0.67 -0.85 -0.53 -0.03 | 0 of 18 |
| 18 | GFTLNSYGIS | VIYSDGRRTFYIDSVK | GWVAGTFDS | n.d. 2.52 n.d. n.d. 2.43 1.69 | 0 of 18 |
| 19 | GFTLDQYGIS | VIYSDGRRTFYADSVK | GRAAGTFDS | 1.10 0.48 1.43 0.45 0.36 0.84 | 0 of 18 |
| 20 | GFTLNDYGIS | VIYSDGRRTFYSDSVK | GRAAGFFTS | n.d. n.d. n.d. n.d. n.d. n.d. | 1 of 18 (2.41) |
| 21 | GFQLNSYGIS | VIYSDGRRTFYSDSVK | GTAAGTFDS | 0.12 0.32 0.07 0.09 -0.04 0.32 | 0 of 18 |
| 22 | GFSLNDYGIS | VIYSDGRRTFYGDSVK | GRAAGTFMS | 0.89 0.26 0.54 0.53 0.28 0.56 | 0 of 18 |
| 23 | GFTLNEYGIS | VIYSDGRRTFYGDSVK | GGAAGTFDL | 0.83 1.18 0.45 0.45 1.64 0.60 | 0 of 18 |
| 24 | GFTLNEYGIS | VIYSDGRRTFYTDSVK | GRMAGTFDS | 0.70 -0.06 0.07 -0.02 0.22 0.47 | 0 of 18 |
| 25 | GFTLDSYGIS | VIYSDGRRTFYDDSVK | GQLAGTFDS | 0.39 0.25 0.02 -0.21 0.29 0.47 | 0 of 18 |
| 26 | GFTLNSYGIS | VIYADGRRTFYGDDVK | GEAAGTFKS | n.d. 0.83 0.90 0.58 0.85 1.93 | 0 of 18 |
| 27 | GFTLNEYGIS | VIYSDGRRTFYGDSVK | GRMAGTFDT | 1.90 0.88 0.66 1.20 0.41 0.42 | 0 of 18 |
| 28 | GFTLNEYGIS | VIYSDGRRTFYTDSVK | GRFAGTFWS | n.d. n.d. n.d. n.d. n.d. n.d. | 0 of 18 |
| 29 | GFTLNEYGIS | VIYSDGCRTFYTDSVK | GRFAGTFDS | n.d. n.d. n.d. n.d. n.d. n.d. | 0 of 18 |
| 30 | GFDLNSYGIS | VIYSDGRRTFYCDSVK | GRLAGTFDS | 1.35 0.92 n.d. 0.84 1.49 0.39 | 0 of 18 |
| 31 | GFTLNEYGIS | VIYSDGRRTFYGDSVK | GRGAVTFDQ | n.d. n.d. n.d. n.d. 3.85 n.d. | 0 of 18 |

The closing 3 entries, repeated:

CDR-H1	CDR-H2	CDR-H3	replicates, log10 nM	signal with controls
GFTLNEYGIS	VIYSDGCRTFYTDSVK	GRFAGTFDS	n.d. n.d. n.d. n.d. n.d. n.d.	0 of 18
GFDLNSYGIS	VIYSDGRRTFYCDSVK	GRLAGTFDS	1.35 0.92 n.d. 0.84 1.49 0.39	0 of 18
GFTLNEYGIS	VIYSDGRRTFYGDSVK	GRGAVTFDQ	n.d. n.d. n.d. n.d. 3.85 n.d.	0 of 18

The parent sequence was in this pool as ten entries: three were never detected, three once, and four in most replicates, with averages from 0.34 to 2.37. Values of this round are not directly comparable with the first-round values of the same sequences. Nonspecific signal, from three strains lacking the peptide, appeared in 1% of pairings of all heavy chain designs, centred on 2.08 (5% of these signals below 0.84); values are not corrected for it. The control count says in how many pairings with the empty strains this scFv gave a signal, with their mean in brackets.